Measured values: PMC10882002, “Design of target specific peptide inhibitors using generative deep learning and molecular dynamics simulations” (Nature Communications, 2024)

Sequences of proteins named here, by UniProt entry; tags and fusion partners are left off.
UniProt P35222, whole entry: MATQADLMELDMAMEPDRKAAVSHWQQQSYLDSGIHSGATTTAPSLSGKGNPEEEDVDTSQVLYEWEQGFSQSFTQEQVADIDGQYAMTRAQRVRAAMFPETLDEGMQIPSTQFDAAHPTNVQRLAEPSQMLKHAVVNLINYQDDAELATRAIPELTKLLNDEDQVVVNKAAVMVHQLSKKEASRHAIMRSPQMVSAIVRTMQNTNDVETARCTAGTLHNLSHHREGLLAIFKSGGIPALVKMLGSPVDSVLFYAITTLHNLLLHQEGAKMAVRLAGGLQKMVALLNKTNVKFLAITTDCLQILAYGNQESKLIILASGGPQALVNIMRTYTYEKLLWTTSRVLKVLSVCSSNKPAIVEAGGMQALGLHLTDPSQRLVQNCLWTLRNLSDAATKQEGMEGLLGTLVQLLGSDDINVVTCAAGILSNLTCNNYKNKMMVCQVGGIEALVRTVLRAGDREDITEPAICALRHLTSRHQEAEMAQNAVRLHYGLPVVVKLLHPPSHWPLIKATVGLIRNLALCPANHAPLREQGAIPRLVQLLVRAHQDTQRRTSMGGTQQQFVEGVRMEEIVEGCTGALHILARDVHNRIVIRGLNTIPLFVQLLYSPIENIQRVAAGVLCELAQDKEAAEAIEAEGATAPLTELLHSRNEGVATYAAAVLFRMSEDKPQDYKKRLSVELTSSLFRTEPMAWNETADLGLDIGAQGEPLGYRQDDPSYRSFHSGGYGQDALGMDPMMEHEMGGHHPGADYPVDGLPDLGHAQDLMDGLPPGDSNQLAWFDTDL

Biological target: GST-β-catenin (Homo sapiens, UniProt P35222)
Test: Competitive fluorescence polarization (FP)-based binding assay against β-catenin
Design: Expression and purification of GST-β-catenin has been reported previously; made in house

CC[C@H](C)[C@@H]1NC(=O)[C@@H](NC(=O)[C@H](CCC(=O)O)NC(=O)[C@@H]2CCCN2C(=O)[C@H](Cc2ccc(O)cc2)NC(C)=O)CC(=O)NCCCC[C@@H](C(=O)N[C@@H](Cc2c[nH]cn2)C(=O)N[C@@H](CC(C)C)C(=O)N[C@@H](CCC(N)=O)C(=O)N[C@@H](CCCNC(=N)N)C(=O)N[C@H](C(=O)N[C@@H](Cc2c[nH]c3ccccc23)C(=O)N[C@@H](Cc2c[nH]c3ccccc23)C(=O)N[C@@H](Cc2ccccc2)C(=O)N[C@H](C(=O)N[C@@H](CC(=O)O)C(=O)N[C@@H](CC(=O)O)C(=O)N[C@@H](Cc2c[nH]cn2)C(=O)N[C@@H](Cc2c[nH]c3ccccc23)C(N)=O)[C@@H](C)O)C(C)C)NC(=O)[C@H](CC(=O)O)NC(=O)[C@H](CC(C)C)NC1=O [CAL-2]
IC50: 10 ± 6 nM

CC[C@H](C)[C@H](NC(=O)[C@H](CO)NC(=O)[C@H](Cc1ccccc1)NC(=O)[C@H](Cc1ccc(O)cc1)NC(=O)[C@H](Cc1ccc(O)cc1)NC(=O)[C@H](CC(C)C)NC(=O)[C@@H](NC(=O)[C@@H](NC(=O)[C@H](CCCNC(=N)N)NC(=O)[C@H](CCC(N)=O)NC(=O)[C@H](CC(C)C)NC(=O)[C@H](Cc1c[nH]cn1)NC(=O)[C@@H]1CCCCNC(=O)C[C@H](NC(=O)[C@H](CCC(=O)O)NC(=O)[C@@H]2CCCN2C(=O)[C@H](Cc2ccc(O)cc2)NC(C)=O)C(=O)N[C@@H]([C@@H](C)CC)C(=O)N[C@@H](CC(C)C)C(=O)N[C@@H](CC(=O)O)C(=O)N1)C(C)C)[C@@H](C)CC)C(=O)N[C@@H](CCC(=O)O)C(N)=O [CAL-9]
IC50: 300 ± 37 nM

CC[C@H](C)[C@@H]1NC(=O)[C@@H](NC(=O)[C@H](CCC(=O)O)NC(=O)[C@@H]2CCCN2C(=O)[C@H](Cc2ccc(O)cc2)NC(C)=O)CC(=O)NCCCC[C@@H](C(=O)N[C@@H](Cc2c[nH]cn2)C(=O)N[C@@H](CC(C)C)C(=O)N[C@@H](CCC(N)=O)C(=O)N[C@@H](CCCNC(=N)N)C(=O)N[C@H](C(=O)N[C@H](C(=O)N[C@@H](CC(C)C)C(=O)N[C@@H](Cc2ccccc2)C(=O)N[C@@H](Cc2ccccc2)C(=O)N[C@@H](CS)C(N)=O)[C@@H](C)CC)C(C)C)NC(=O)[C@H](CC(=O)O)NC(=O)[C@H](CC(C)C)NC1=O [CAL-10]
IC50: 200 ± 64 nM
